Where two headings read alike, the source gives them in different places.
Legend:
nasal mucous membrane = conditions: rat, intranasal
Description: Male Sprague-Dawley (SD) rats (280-300 g) were acclimated for a minimum of two days in individual cages in a laboratory animal room. At this time, the rats were allowed to freely consume food and water before an experiment, provided with light for 12 hours, and maintained in the dark state for 12 hours. One day before the experiment, the animals were provided only with water and fasted.
The rats prepared in above 1 were divided into each group of three to five rats so as to prepare a total of nine groups, after which each of the test substances prepared was intranasally administered into the group. At this time, the dosage of each drug was 1.0, 2.5 or 5.0 mg/kg per rat.
Before intranasal administration, the rat was anesthetized and cannulated into the femoral veno-artery using PE-50. The solution was carefully administered to the nostril of the rat using a micropipette (Eppendof) so as not to affect the nasal mucous membrane. At this time, the rat's body was laid on the floor and the head was placed while leaning against the wall.
(§1) The collected blood was centrifuged at 13,000 rpm for 10 minutes so as to obtain 100 μl of plasma. After adding 200 μl of methanol to the obtained plasma, the resulting solution was subjected into vortex, and then centrifuged again at 13,000 rpm for 10 minutes to carry out deproteinization, and the supernatant was quantitatively analyzed by HPLC-MS.

[1] = tested on: intestinal mucous membrane; conditions: rat, duodenum, exenadine (10 mg/kg) alone (control); Mean ± SEM
Description: Before drug administration, the rat was anesthetized and cannulated into the femoral veno-artery using PE-50. An abdominal cavity was opened and the test substance was administered to an upper duodenum of the small intestine.
as §1, with “After administration of the solution through a cannula inserted into the femoral vein of the rat, each 250 μl of blood was collected at 5, 10, 20, 40, 60, 120, 180 and 240 minutes and saline was supplemented via the femoral artery. The” for “The”

[2] = fexofenadine with peptide vs fexofenadine alone

| Substance | AUC0-360min of fexofenadine, times higher than the group dosed with fexofenadine alone (nasal mucous membrane; fexofenadine with peptide (text on Table 1)) | Fexofenadine AUC0-240 min, fold of control group (nasal mucous membrane; [2]) | Fexofenadine Cmax, fold of control group (nasal mucous membrane; [2]) | Fexofenadine Tmax, fold of control group (nasal mucous membrane; [2]) | Fexofenadine Cmax, fold of control group (nasal mucous membrane; fexofenadine with peptide vs fexofenadine alone, listed as H-FX1IGRL-OH) | Exenadine AUC0-240 min [1] |
| --- | --- | --- | --- | --- | --- | --- |
| FX1IGRL-OH (X1=Dap(N3)) [Example 2] | 1.9 times | (1.88-fold) | double | (0.67-fold) | (1.97-fold) |  |
| exenadine [reference compound] |  |  |  |  |  | 4.49 ± 0.94 µg·min/mL |
